Assay results published in paper PMC8073719, “Biochemical and Biophysical Characterization of Recombinant Human 3-Phosphoglycerate Dehydrogenase” (International Journal of Molecular Sciences, 2021).

T1: hPHGDH (Homo sapiens, UniProt O43175)
T1 sequence (O43175 1-533): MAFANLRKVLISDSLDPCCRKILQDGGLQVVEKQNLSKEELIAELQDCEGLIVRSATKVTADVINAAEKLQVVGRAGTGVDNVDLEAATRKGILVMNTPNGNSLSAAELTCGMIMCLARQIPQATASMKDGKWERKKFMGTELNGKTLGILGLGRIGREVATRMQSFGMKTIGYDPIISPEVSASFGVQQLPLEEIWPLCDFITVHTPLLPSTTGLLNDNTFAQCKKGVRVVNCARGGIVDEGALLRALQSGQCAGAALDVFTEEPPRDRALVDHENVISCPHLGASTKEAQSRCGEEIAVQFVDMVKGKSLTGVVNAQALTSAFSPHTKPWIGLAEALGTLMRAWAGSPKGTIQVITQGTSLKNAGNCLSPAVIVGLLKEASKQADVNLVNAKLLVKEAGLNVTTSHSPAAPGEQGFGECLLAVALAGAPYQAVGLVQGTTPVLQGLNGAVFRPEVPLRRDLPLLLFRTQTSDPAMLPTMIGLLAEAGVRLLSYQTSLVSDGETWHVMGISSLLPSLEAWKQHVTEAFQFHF

B1: recombinant human D-3-phosphoglycerate dehydrogenase, His-tagged, full length (enzyme, UniProt O43175 1-533, looked up)
chain: T1 sequence (O43175 1-533)
notes: D-3-phosphoglycerate dehydrogenase, human, 533 amino acids; synthetic gene back-translated from GenBank CAG33076.1, codon-optimised for E. coli, cloned in pETM11 (NcoI/XhoI); The N-terminal 6xHis tag of pETM11 can be cut by TEV protease, but no cleavage is reported; the tagged monomer has a theoretical mass of 59.776 kDa and was detected with an anti-His antibody in the SEC peaks; Tetramer in …

Legend:
hPHGDH = molecular target: T1, hPHGDH; experiment: hPHGDH reverse reaction kinetics (decrease in NADH fluorescence at 450 nm); settings: 5 mM NADH, Figure S4A,C,D
Description: The latter assay was used to determine the apparent kinetic parameters on alternative substrates.

E. coli PHGDH = settings: reverse reaction; cited from earlier work
[1] = substrate: O=C(O)CCC(=O)C(=O)O; experiment: purified protein, by the assay type; settings: other: reverse reaction, 5 mM NADH, pH 7.0

Molecule	maximal rate of fit with substrate inhibition (hPHGDH)	kinetic efficiency (E. coli PHGDH) [M⁻¹ s⁻¹]	Km ([1]; Figure S4A,C,D, 37.0 °C) [µM]	Km ([1]; substrate varied, 37 °C)	kcat ([1]; substrate varied, 37 °C) [s⁻¹]	kcat/Km ([1]; substrate varied, 37 °C) [M⁻¹ s⁻¹]
O=C(O)CCC(=O)C(=O)O [α-Ketoglutarate]	1.0342	30000	–	–	–	–
B1	–	–	23.7	0.024 ± 0.007 [Ki = 13.3 ± 4.6] mM	1.03 ± 0.10	39100
